Earlier results on one substance are cited in patent publication US7176183B2, “Methods for treating and preventing damage to mucosal tissue” (University of Southern California, priority 1999, dated 2007).

In this data set the target is T1, AT2 receptor (Homo sapiens, UniProt P50052).
T1 sequence (P50052 1-363): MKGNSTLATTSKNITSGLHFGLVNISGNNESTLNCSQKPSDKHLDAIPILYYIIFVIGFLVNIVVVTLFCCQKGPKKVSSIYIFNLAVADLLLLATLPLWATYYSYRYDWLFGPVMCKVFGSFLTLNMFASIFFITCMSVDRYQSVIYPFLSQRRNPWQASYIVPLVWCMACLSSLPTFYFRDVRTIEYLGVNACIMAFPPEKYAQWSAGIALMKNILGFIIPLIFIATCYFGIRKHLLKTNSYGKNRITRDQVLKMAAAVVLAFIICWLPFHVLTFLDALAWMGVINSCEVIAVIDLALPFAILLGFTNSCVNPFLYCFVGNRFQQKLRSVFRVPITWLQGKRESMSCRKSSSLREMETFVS
The note with it: experimental models tested; cited from earlier work.

For “Asp-Arg-Val-Tyr-Ile-Xaa-Pro-Phe [p-aminophenylalanine6-AII]”, the Binding characteristics result is given as “comparable to AT2 antagonists”.
